Test results reported in PMC12707362, “Targeting Aurora Kinases as Essential Cell‐Cycle Regulators to Deliver Multi‐Stage Antimalarials Against Plasmodium Falciparum” (Angewandte Chemie (International Ed. in English), 2025).

What was measured:
[1] = test system: HepG2 and CHO cell lines versus PfNF54; assay: Selectivity of parasite versus mammalian cell lines; type: cell-based; settings: mammalian cell line (CHO/HepG2) CC50 versus PfNF54 IC50; cell line not specified
[2] = test system: hepatocellular carcinoma (HepG2) cells; assay: Cytotoxicity counter-screening (MTT), HepG2; settings: HepG2 CC50/PfNF54 IC50
Description: (§1) HepG2 and CHO cells were maintained at 37 °C, under a humidified atmosphere of 5% CO2, in DMEM high glucose media (Gibco) supplemented with 10% heat-inactivated FBS and 1% (v/v) Penicillin-Streptomycin antibiotics. […] The supernatant was discarded, and the cell pellet was resuspended in 1 mL DMEM media for cell counting by Trypan Blue. To determine the toxicity, cells were resuspended and seeded at a concentration of 1x10^4 cells/well in a 96-well plate and incubated for 24 h^[9,10]. Cells were treated in duplicate with a 10-fold serial dilution starting at 100 ug/mL of inhibitor in new media. After 48 h incubation, the viable cells were measured using the MTT tetrazolium reduction assay, where sterile 25 µL of a 5 mg/mL MTT was added to each well and incubated for 4 h before the […] formazan crystals were dissolved with 100 µL DMSO (Merck) per well. The absorbance, a measure of intracellular reduction of MTT, was measured at 540 nm (Multiskan GO). Emetine (50 µM) was included as a positive drug control, and the background was subtracted from all data before being normalised to the untreated^[9,10].

[3] = test system: Chinese Hamster Ovary (CHO) cells; assay: Cytotoxicity counter-screening (MTT), CHO; settings: CHO CC50/PfNF54 IC50
Description: as §1

unsynchronized PfNF54 = assay: IC50 speed of kill assay; type: cell-based, Plasmodium falciparum; settings: 24, 48, 72, 96 h incubation
Description: To determine the stage specificity during asexual intra-erythrocytic development, P. falciparum NF54 parasites were synchronised using 5% D-Sorbitol to obtain a >90% ring-stage population (6–10 h post-invasion, hpi). […] The rate of activity and stage-specificity was monitored morphologically using Giemsa-stained thin smears. Asexual intra-erythrocytic stage parasites were treated at ring, early/late trophozoite, and schizont stages, sampling every 12 h over a 48-hour period. Images were captured using a Nikon Eclipse 50i light microscope adapted with a Nikon camera (Nikon DS-Fi1) and NIS-Elements software. […] Parasite progression was monitored every 12 h over a 48-h period using flow cytometry, as described in^[11]. The IC50 speed assay was conducted as described in^[12]. Briefly, unsynchronised P. falciparum NF54 asexual proliferation was determined using a SYBR Green I proliferation-based assay and expressed as IC50 values as described earlier. Four incubation times were employed for each inhibitor: 96 (standard assay time), 72, 48 and 24 h. IC50 values were obtained from corrected dose-response curves using Graph-Pad Prism v10.5.

Row | Compound | selectivity index (SI) towards the parasite [1] | Selectivity index (SI) HepG2 [2] | Selectivity index (SI) CHO [3] | kill kinetics (IC50 shift over time) (unsynchronized PfNF54)
1 | CCN1CCN(C(=O)Cc2ccc(Nc3ncc(F)c(Nc4ccc(C(=O)Nc5ccccc5Cl)cc4)n3)cc2)CC1 [AAi I, Aurora A Inhibitor I] | < 10 | 10.71 | 7.48 | 
2 | CCN(CCO)CCCOc1ccc2c(Nc3cc(CC(=O)Nc4cccc(F)c4)n[nH]3)ncnc2c1 [AZD-1152, AZD-1152-HQPA] | > 100 | 34.41 |  | 
3 | O=C(Nc1cccc(Nc2nccc(Nc3cccc(C(F)(F)F)c3)n2)c1)C1CC1 [Aki III, Aurora kinase inhibitor III] | < 10 | 22.49 | 2.90 | 
4 | COc1cc(N2CCC(N3CCN(C)CC3)CC2)ccc1Nc1ncc(Cl)c(Nc2ccccc2S(=O)(=O)C(C)C)n1 [TAE684, NVP-TAE684] |  | 31.5 | 7.21 | significant IC50 shift after 48 h
